Laboratory results from patent US10703723B2, “Prodrugs of sulfasalazine, pharmaceutical compositions thereof and their use in the treatment of autoimmune disease” (Truly Translational Sweden AB, priority 2017, dated 2020).
Read-outs that look alike come from different tables or passages of the source.

Experiments:
[1] = male, Wistar (Hannover), rat, in vivo, po, 40 mg/kg
Method: In accordance with Swedish legislations for preclinical in vivo studies in rodents and following evaluation and approval of the experimental procedures the local ethical committee (M388-12), following acclimatization to the housing conditions for a minimum of 7 days after arrival, male Wistar (Hannover) rats (Taconic, Denmark), average weight 300 g; average age 8-10 weeks, were treated with test items (see table 1); 12-16 h prior to dosing all food except for an amount equivalent to a half day consumption was removed. […] The rats were conscious during sample collection and the blood was taken from the sub-lingual vein. Blood samples were collected from each rat over a period of up to 24 h. […] The body weight of the rat was recorded before dosing. The weight of the syringe was recorded before and after administration to allow calculation of the actual amount of test sample delivered. […]
Samples and standards were injected by a HTC PAL from CTC analytics into an LC system from Shimadzu consisting of a high pressure gradient system of two LC-10 AD pumps controlled by a SCL-10A controller from Shimadzu. […] The eluent was analyzed by a Quattro Ultima from Micromass equipped with an electrospray ion source. Data was collected and calibrations were calculated by MassLynx 4.0 software. […] The eluent was ionized by negative ion electrospray and the mrm transition from 397 to 197 m/z was monitored. […]

[2] = appearance of test formulations / solubility over time in PBC buffer (pH 7.4); format: physicochemical; details: 0.5% CMC in phosphate buffer (pH 7.4)
[3] = cited from earlier work
[4] = RA patients with slow acetylation rate, 2 g/d sulfasalazine

## O=C(O)c1cc(/N=N/c2ccc(S(=O)(=O)Nc3ccccn3)cc2)ccc1O [Sulfasalazine, 2-hydroxy-5-[2-[4-[(2-pyridinylamino)sulfonyl]phenyl]diazenyl]-benzoic acid]
[1]
  Ratio SP to SSZ for AUC0-4 h (h*nmol/L): 14:1
  Ratio SP to SSZ for Cmax (nmol/L): 20:1
[2]; t = 0 h
  Appearance of test formulations t = 0 h: suspension
[2]; t = 4 h
  Appearance of test formulations t = 4 h: suspension
[3]; [4]
  ratio of AUC0→∞ of SP vs SSZ: 5.5
  ratio of blood plasma steady state concentration (CSS) of SP vs SSZ: 6
[3]; healthy volunteer study, 63° slow acetylators
  ratio of AUC0→∞ of SP vs SSZ: 4
